Assay results: ChEMBL document CHEMBL4229327, “Chemical Approaches to Modulating Complement-Mediated Diseases” (J Med Chem, 2018)

By UniProt entry, the sequences of proteins in these tests, tags left out.
UniProt P00746, whole entry: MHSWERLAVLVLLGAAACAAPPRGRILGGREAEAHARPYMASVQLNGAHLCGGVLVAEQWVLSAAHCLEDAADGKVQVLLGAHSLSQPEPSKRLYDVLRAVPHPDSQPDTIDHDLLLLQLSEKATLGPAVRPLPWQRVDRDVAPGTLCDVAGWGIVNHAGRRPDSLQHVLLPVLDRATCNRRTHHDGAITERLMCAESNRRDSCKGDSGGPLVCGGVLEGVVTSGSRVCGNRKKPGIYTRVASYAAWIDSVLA

Columns and labels:
[1] = target: T1, Complement factor D (Homo sapiens, UniProt P00746)
[2] = target: T1, Complement factor D; remark: listed apart in the source
[3] = target: T1, Complement factor D; remark: listed apart in the source

Compound: CC(=O)c1nn(CC(=O)N2C[C@H](F)C[C@H]2C(=O)Nc2cccc(Br)n2)c2ccc(-c3cnc(C)nc3)cc12 [DANICOPAN]
- Kd [1]: < 1 nM
- IC50 [2]: 4 nM
- IC50 [3]: 15 nM
